Measurements as given in ChEMBL document CHEMBL1142013, “Tryptamine and homotryptamine-based sulfonamides as potent and selective inhibitors of 15-lipoxygenase” (Bioorg Med Chem Lett, 2005).

Tests used:
[1] = biological target: T1, Polyunsaturated fatty acid lipoxygenase ALOX15 (Oryctolagus cuniculus, UniProt P12530); test: Inhibitory concentration against isolated rabbit reticulocyte 15-lipoxygenase measured in the presence of linoleic acid
T1 sequence (P12530 whole entry): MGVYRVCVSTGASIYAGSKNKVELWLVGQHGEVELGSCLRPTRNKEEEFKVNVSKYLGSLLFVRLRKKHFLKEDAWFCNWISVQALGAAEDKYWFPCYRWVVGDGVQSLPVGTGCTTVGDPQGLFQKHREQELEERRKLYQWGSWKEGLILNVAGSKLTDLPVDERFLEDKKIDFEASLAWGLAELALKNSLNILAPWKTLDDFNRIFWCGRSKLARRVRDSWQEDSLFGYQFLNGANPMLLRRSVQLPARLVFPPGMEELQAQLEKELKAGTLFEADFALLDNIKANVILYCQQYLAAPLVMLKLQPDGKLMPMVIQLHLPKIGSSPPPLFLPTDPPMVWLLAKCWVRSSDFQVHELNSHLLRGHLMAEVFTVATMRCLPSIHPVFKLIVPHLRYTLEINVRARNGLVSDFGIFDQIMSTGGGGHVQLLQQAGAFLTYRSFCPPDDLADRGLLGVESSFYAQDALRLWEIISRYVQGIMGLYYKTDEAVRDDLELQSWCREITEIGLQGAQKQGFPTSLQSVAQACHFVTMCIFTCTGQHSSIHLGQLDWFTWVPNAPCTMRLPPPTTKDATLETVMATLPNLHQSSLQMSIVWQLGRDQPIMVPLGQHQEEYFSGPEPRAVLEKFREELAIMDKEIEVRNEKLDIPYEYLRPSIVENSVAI
How it was run: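 15-LO was purified from reticulocytes of phenylhydrazine-treated rabbits. Linoleic acid was the substrate. In a colorimetric assay, the 13-HPODE product oxidizes Fe²⁺ under mildly acidic conditions, and IC50 is derived from this. Many values were also checked spectrophotometrically by the rate of diene formation (A₂₃₄).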

[2] = biological target: T1, Polyunsaturated fatty acid lipoxygenase ALOX15; test: Inhibitory concentration against rabbit reticulocyte 15-lipoxygenase with substrate arachidonic acid
How it was run: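 Purified rabbit reticulocyte 15-LO, isolated from phenylhydrazine-treated rabbits, with arachidonic acid as the substrate. IC50 comes from a colorimetric read-out in which the 15-HPETE product oxidizes Fe²⁺ under mildly acidic conditions. Many values were also verified by the spectrophotometric diene-formation rate (A₂₃₄).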

IC50 [1]: 6 nM | IC50 [2]: 21 nM
SMILES: CCCCCc1ccc(S(=O)(=O)NCCc2c(-c3cc4ccccc4o3)[nH]c3ccccc23)cc1
